Measured values reported in patent publication US10555932B2, “Method of restoring analgesic efficacy of alpha2-adrenoceptor agonists in neuropathic pain treatment” (KOREA INSTITUTE OF SCIENCE AND TECHNOLOGY, priority 2016, dated 2020).

Key:
[1] = tested on: systolic blood pressure (SBP); conditions: mouse
Method: To evaluate the induction of low blood pressure, systolic blood pressure (SBP) was measured using a non-invasive computerized tail-cuff system as previously described in the art (PowerLab system, ADI Instrument Pry Ltd., Chain Hills, NSW, Australia). Briefly, animals were acclimated for 30 minutes in a quiet test room prior to obtaining cardiovascular measurements. At the end of the 1 hour period, the SBP was measured. This experiment was repeated 3 times and the mean value for each animal was recorded. […] All cardiovascular measurements were obtained between 1 pm to 3 pm in order to avoid changes due to normal circadian rhythms.
(§1) Test results are expressed as means±SEM unless otherwise stated. Data analysis and statistical comparisons were performed using GraphPad Prism version 5.0 (GraphPad Software, San Diego, Calif.). Comparison between two groups was made using the Student's t-test. For multiple comparisons, ANOVA followed by post hoc Tukey test was performed. Differences with P<0.05 were considered significant.

[2] = human, cited from earlier work
[3] = hydrochloride, about 0.2 μg/kg/hour to about 0.7 μg/kg/hour, within 24 hours; cited from earlier work
[4] = tested on: motion performance; conditions: mouse
Method: To evaluate degradation of motion performance capability as one of side effects caused by the low blood pressure, rotarod test was performed on each of the mice administered with clonidine or the RGS4 inhibitor. […] All mice were tested 24 hours before the actual rotarod test, and mice that were able to remain on the rod for at least 120 seconds were included in the experiment. 30 minutes after clonidine injection, each animal was subsequently tested on the rotarod over 2-minutes period and their performance time on the bar (in seconds) was measured. The test was repeated 3 times and the mean value for each animal was recorded.
as §1

Cc1cccc([C@H](C)c2c[nH]cn2)c1C.Cl [dexmedetomidine, 4-[(1S)-1-(2,3-dimethylphenyl)ethyl]-1H-imidazole hydrochloride]
low blood pressure side effect ([1]; 1 nmol in combination with the RGS4 inhibitor (FIG. 7)): no side effects | blood pressure (SBP) change ([1]; dexmedetomidine 3 nmol alone (effective dose), 30 minutes after treatment (FIG. 7)): significant symptoms of low blood pressure | side effects ([2]; 0.5 μg/kg intravenously in combination with lidocaine): no statistically significant side effects | respiratory paralysis ([2]; about 5 μg/kg to about 10 μg/kg intravenously): no incidental respiratory paralysis | patients with low blood pressure [3]: about 25% | decreased motor performance side effect ([4]; 1 nmol in combination with the RGS4 inhibitor (FIG. 8)): no side effects | motor performance (rotarod) ([4]; dexmedetomidine 3 nmol alone (FIG. 8)): rapidly decreased motor performance
